CycPeptMPDB entries from one study

Source: CycPeptMPDB (Li et al. 2023), which took these values from Townsend et al. 2020, doi:10.26434/chemrxiv.13335941.v1.

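Conditions beyond the assay type are not listed; see the original paper. The list need not hold all peptides of the study. Entries at the database's floor value (log10 P of -10) are not listed.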

PAMPA measures passive passage through an artificial lipid membrane.
P is given in units of 10^-6 cm/s (from log10 values with two decimals); larger means faster passage.

* CCCN1CC(=O)N(C)[C@H](CC(C)C)C(=O)N[C@@H](Cc2ccccc2)CC(=O)N2CCC[C@H]2C(=O)N[C@@H](CC(C)C)C(=O)N[C@@H](Cc2ccccc2)C1=O: PAMPA 2.8 × 10^-6 cm/s
* CC(C)C[C@@H]1NC(=O)[C@@H](C)NC(=O)[C@H](Cc2ccccc2)NC(=O)CN(Cc2ccccc2)C(=O)[C@H]2CCCN2C(=O)C[C@H](Cc2ccccc2)NC1=O: PAMPA 1.6 × 10^-6 cm/s
* CCCN1CC(=O)N(C)[C@@H](CC(C)C)C(=O)N[C@@H](Cc2ccccc2)CC(=O)N2CCC[C@@H]2C(=O)N(C)[C@H](CC(C)C)C(=O)N[C@@H](Cc2ccccc2)C1=O: PAMPA 4.2 × 10^-6 cm/s
* CC(C)C[C@@H]1NC(=O)C[C@H](Cc2ccccc2)NC(=O)[C@H](Cc2ccccc2)NC(=O)CN(Cc2ccccc2)C(=O)[C@@H]2CCCN2C(=O)[C@@H](CC(C)C)N(C)C1=O: PAMPA 2.5 × 10^-6 cm/s
* CC(C)C[C@H]1C(=O)N[C@@H](Cc2ccccc2)CC(=O)N2CCC[C@H]2C(=O)N(Cc2ccccc2)CC(=O)N[C@@H](Cc2ccccc2)C(=O)N[C@@H](C)C(=O)N1C: PAMPA 0.76 × 10^-6 cm/s
* CC(C)C[C@@H]1C(=O)N2CCC[C@H]2C(=O)N(Cc2ccccc2)CC(=O)N[C@@H](Cc2ccccc2)C(=O)N2CCC[C@@H]2C(=O)N(C)[C@@H](C)C(=O)N(Cc2ccccc2)CC(=O)N1C: PAMPA 1.7 × 10^-6 cm/s
* CC(C)C[C@H]1NC(=O)[C@H]2CCCN2C(=O)C[C@H](Cc2ccccc2)NC(=O)CN(Cc2ccccc2)C(=O)[C@@H](C)NC(=O)[C@H]2CCCN2C(=O)[C@H](Cc2ccccc2)NC1=O: PAMPA 1.3 × 10^-6 cm/s
* CC(C)C[C@@H]1C(=O)N(Cc2ccccc2)CC(=O)N2CCC[C@@H]2C(=O)N(Cc2ccccc2)CC(=O)N[C@@H](Cc2ccccc2)C(=O)N[C@@H](Cc2ccccc2)CC(=O)N1C: PAMPA 3.5 × 10^-6 cm/s
* CCCN1CC(=O)N[C@H](CC(C)C)C(=O)N(C)[C@@H](CC(C)C)C(=O)N2CCC[C@H]2C(=O)N(C)[C@@H](CC(C)C)C(=O)N[C@@H](Cc2ccccc2)C1=O: PAMPA 17 × 10^-6 cm/s
* O=C1CN(Cc2ccccc2)C(=O)C[C@H](Cc2ccccc2)NC(=O)[C@H](Cc2ccccc2)NC(=O)CN(Cc2ccccc2)C(=O)[C@@H]2CCCN2C(=O)C[C@H](Cc2ccccc2)N1: PAMPA 1.5 × 10^-6 cm/s
* O=C1CN(Cc2ccccc2)C(=O)[C@@H]2CCCN2C(=O)CN(Cc2ccccc2)C(=O)CN(Cc2ccccc2)C(=O)C[C@H](Cc2ccccc2)NC(=O)[C@H](Cc2ccccc2)N1: PAMPA 0.68 × 10^-6 cm/s
* CC(C)C[C@@H]1NC(=O)[C@@H]2CCCN2C(=O)C[C@H](Cc2ccccc2)NC(=O)[C@H](CC(C)C)N(C)C(=O)C[C@H](Cc2ccccc2)NC(=O)[C@H](Cc2ccccc2)NC1=O: PAMPA 1.9 × 10^-6 cm/s
* CCCN1CC(=O)N(C)[C@@H](CC(C)C)C(=O)N[C@@H](Cc2ccccc2)CC(=O)N2CCC[C@@H]2C(=O)N[C@H](CC(C)C)C(=O)N[C@@H](Cc2ccccc2)C1=O: PAMPA 4.5 × 10^-6 cm/s
* CC(C)C[C@@H]1NC(=O)[C@@H](CC(C)C)N(C)C(=O)C[C@H](Cc2ccccc2)NC(=O)[C@@H]2CCCN2C(=O)[C@H](Cc2ccccc2)NC(=O)CN(Cc2ccccc2)C(=O)[C@H]2CCCN2C1=O: PAMPA 1.7 × 10^-6 cm/s